Reference: US20030022820A1, “IN VIVO ACTIVATION OF TUMOR-SPECIFIC CYTOTOXIC T CELLS” (priority 1995, published 2003)

What was measured:
MDA.MB435 = assay: Cytotoxicity assay, lysis of human tumors by H3 and H7 specific CTL; type: cell-based; set-up: scale not given here; settings: Breast, A2 −
MALME-3M = assay: as above; type: cell-based; set-up: scale not given here; settings: Melanoma, A2 +
JY = assay: as above; type: cell-based; set-up: scale not given here; settings: Lymphoma, A2 +
MCF-7 = assay: as above; type: cell-based; settings: Breast, A2 +
U2-OS = assay: as above; type: cell-based; settings: Osteosarcoma, A2 +
OVCAR-5 = assay: as above; type: cell-based; settings: Ovarian, A2 +
SV80 = assay: as above; type: cell-based; settings: Fibroblast, A2 +
SAOS.175 = assay: as above; type: cell-based; settings: Osteosarcoma, A2 +
MDA.M8231 = assay: as above; type: cell-based; settings: Breast, A2 +
SKMEL-5 = assay: as above; type: cell-based; settings: Melanoma, A2 +
BT549 = assay: as above; type: cell-based; settings: Breast, A2 +
SW480 = assay: as above; type: cell-based; settings: Colon, A2 +
CASKI = assay: as above; type: cell-based; settings: Cervix, A2 +
ST486 = assay: as above; type: cell-based; settings: Lymphoma, A2 +
LG-2 = assay: as above; type: cell-based; settings: EBV-trans., A2 +
T98G = assay: as above; type: cell-based; settings: Glioblastoma, A2 +
U87G = assay: as above; type: cell-based; settings: Glioblastoma, A2 +
Hep-G2 = assay: as above; type: cell-based; settings: Hepatoma, A2 +
NCI.H1355 = assay: as above; type: cell-based; settings: Lung, A2 +
[1] = system: A2.1/K^b×CD8 or A2.1 transgenic (Tg) mice; assay: Immunization of transgenic mice with Her-2/neu peptides, cytotoxicity against peptide-pulsed T2-A2.1/K^b; type: in vivo; settings: A2.1/K^b×CD8 or A2.1 Tg mice
[2] = + CYT (γ-IFN 20 ng/ml plus TNF-α 3 ng/ml, 24 hours)

SMILES: CC[C@H](C)[C@H](NC(=O)[C@@H](N)CCCCN)C(=O)N[C@@H](Cc1ccccc1)C(=O)NCC(=O)N[C@@H](CO)C(=O)N[C@@H](CC(C)C)C(=O)N[C@@H](C)C(=O)N[C@@H](Cc1ccccc1)C(=O)N[C@@H](CC(C)C)C(=O)O [Peptide H3]
- Killing of Tumors Expressing Her-2/neu (MDA.MB435; [2]): 2
- Killing of Tumors Expressing Her-2/neu (MDA.MB435; without cytokines): 3
- Killing of Tumors Expressing Her-2/neu (MALME-3M; [2]): 57
- Killing of Tumors Expressing Her-2/neu (MALME-3M; without cytokines): 28
- Killing of Tumors Expressing Her-2/neu (JY; [2]): 1
- Killing of Tumors Expressing Her-2/neu (JY; without cytokines): 2
- Killing of Tumors Expressing Her-2/neu (MCF-7; [2]): 54
- Killing of Tumors Expressing Her-2/neu (MCF-7; without cytokines): 7
- Killing of Tumors Expressing Her-2/neu (U2-OS; [2]): 91
- Killing of Tumors Expressing Her-2/neu (U2-OS; without cytokines): 32
- Killing of Tumors Expressing Her-2/neu (OVCAR-5; [2]): 29
- Killing of Tumors Expressing Her-2/neu (OVCAR-5; without cytokines): 25
- Killing of Tumors Expressing Her-2/neu (SV80; [2]): 8
- Killing of Tumors Expressing Her-2/neu (SV80; without cytokines): 4
- Killing of Tumors Expressing Her-2/neu (SAOS.175; [2]): 33
- Killing of Tumors Expressing Her-2/neu (SAOS.175; without cytokines): 27
- Killing of Tumors Expressing Her-2/neu (MDA.M8231; [2]): 85
- Killing of Tumors Expressing Her-2/neu (MDA.M8231; without cytokines): 34
- Killing of Tumors Expressing Her-2/neu (SKMEL-5; [2]): 38
- Killing of Tumors Expressing Her-2/neu (SKMEL-5; without cytokines): 6
- Killing of Tumors Expressing Her-2/neu (BT549; [2]): 40
- Killing of Tumors Expressing Her-2/neu (BT549; without cytokines): 2
- Killing of Tumors Expressing Her-2/neu (SW480; [2]): 50
- Killing of Tumors Expressing Her-2/neu (SW480; without cytokines): 6
- Killing of Tumors Expressing Her-2/neu (CASKI; [2]): 30
- Killing of Tumors Expressing Her-2/neu (CASKI; without cytokines): 13
- Killing of Tumors Expressing Her-2/neu (ST486; [2]): 1
- Killing of Tumors Expressing Her-2/neu (ST486; without cytokines): 1
- Killing of Tumors Expressing Her-2/neu (LG-2; [2]): 4
- Killing of Tumors Expressing Her-2/neu (LG-2; without cytokines): 2
- Killing of Tumors Expressing Her-2/neu (T98G; [2]): 99
- Killing of Tumors Expressing Her-2/neu (T98G; without cytokines): 20
- Killing of Tumors Expressing Her-2/neu (U87G; [2]): 1
- Killing of Tumors Expressing Her-2/neu (U87G; without cytokines): 2
- Killing of Tumors Expressing Her-2/neu (Hep-G2; [2]): 20
- Killing of Tumors Expressing Her-2/neu (Hep-G2; without cytokines): 4
- Killing of Tumors Expressing Her-2/neu (NCI.H1355; [2]): 38
- Killing of Tumors Expressing Her-2/neu (NCI.H1355; without cytokines): 11
- ability to stimulate a CTL response in Tg mice, in words [1]: able to stimulate a CTL response
